Values of other authors, collected in article PMC7573825, “Population Pharmacokinetics of Vancomycin in Kidney Transplant Recipients: Model Building and Parameter Optimization” (Frontiers in Pharmacology, 2020).

Set-up: method as in 3 sources, one per row (each row's own in cited_ref): ref Adane et al., 2015; Lin et al., 2016 ||| ref Ji et al., 2018 ||| ref Lin et al., 2019
Conditions: first of two other studies, typical creatinine clearance rate nearly 60 ml/min; ref Ji et al., 2018; cited from earlier work

SMILES: CN[C@H](CC(C)C)C(=O)N[C@H]1C(=O)N[C@@H](CC(N)=O)C(=O)N[C@H]2C(=O)N[C@H]3C(=O)N[C@H](C(=O)N[C@H](C(=O)O)c4cc(O)cc(O)c4-c4cc3ccc4O)[C@H](O)c3ccc(c(Cl)c3)Oc3cc2cc(c3O[C@@H]2O[C@H](CO)[C@@H](O)[C@H](O)[C@H]2O[C@H]2C[C@](C)(N)[C@H](O)[C@H](C)O2)Oc2ccc(cc2Cl)[C@H]1O [vancomycin]
- typical value of drug clearance: 3.35 L/h
